OPERA 2.9 data: properties

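These are experimental values that the OPERA curators gathered from public databases to train and test their QSAR models. A listed value is a point estimate from one report or more. Conditions of the individual experiments are not part of the data. The measured form (salt, isomer or mixture) is not always the one drawn. Some upstream entries may be estimates or bounds without being marked so.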

Melting points are in °C. The boiling point refers to atmospheric pressure (760 mmHg), by the definition of the set. The octanol-water partition coefficient is given as log10; larger values mean a more lipophilic compound. Water solubility is log10 of mol/L, nominally at 25 °C; higher is more soluble. Vapor pressures (log10 mmHg) refer to near room temperature, 15 to 30 °C; higher is more volatile. The Henry's law constant is on a log10 scale in atm·m3/mol (set defined at 25 °C); higher favours air over water. fu is the fraction unbound in human plasma, from 0 to 1. "n/a" marks a cell with nothing listed here.

| structure (SMILES) | name | MP (°C) | BP (°C) | log Kow | log solubility (log10 mol/L) | log vapor pressure (log10 mmHg) | Henry's law constant (log10 atm·m3/mol) | fu |
|---|---|---|---|---|---|---|---|---|
| Cn1cc(C(=O)O)c(C(F)F)n1 | 3-(Difluoromethyl)-1-methyl-1H-pyrazole-4-carboxylic acid | 202.6 | n/a | 0.39 | -1.689 | -6.88 | n/a | n/a |
| O=P(Oc1ccccc1)(Oc1ccccc1)O[C@H]1CO[C@H]2[C@@H]1OC[C@H]2OP(=O)(Oc1ccccc1)Oc1ccccc1 | 1,4:3,6-Dianhydro-2,5-bis-O-(diphenoxyphosphoryl)-D-glucitol | n/a | n/a | 3.3 | -6.309 | n/a | n/a | n/a |
| NC(=O)NCCCC[C@H](N)C(=O)O | Homocitrulline | 211.5 | n/a | n/a | 0.501 | n/a | n/a | n/a |
| Cc1c(Cl)ccc2c1C(=O)OC2=O | 4,5-Dichloro-1,3-isobenzofurandione | 121 | 329 | n/a | n/a | n/a | n/a | n/a |
| COc1ccc(N2CCN(c3ccc([N+](=O)[O-])cc3)CC2)cc1 | 1-(4-methoxyphenyl)-4-(4-nitrophenyl)piperazine | 193 | n/a | 3.4 | -6.929 | -9.929 | n/a | n/a |
| CCN(C(=S)[S-])c1ccccc1.CCN(C(=S)[S-])c1ccccc1.[Zn+2] | Zinc bis[ethyl(phenyl)carbamodithioate] | n/a | n/a | 3.4 | -6.816 | n/a | n/a | n/a |
| CC(C)(O)C(=O)c1ccc(Cc2ccc(C(=O)C(C)(C)O)cc2)cc1 | n/a | 84.3 | 332.7 | 2.3 | n/a | n/a | n/a | n/a |
| C=CCSC(=O)n1c(N)c(-c2ccccc2C)c(=O)n1C(C)C | Fenpyrazamine | 116 | 240 | n/a | -4.21 | n/a | -8.796 | n/a |
| O=C(Nc1cccc2c(=O)c3c(ccc4c5cc(NC(=O)c6ccccc6)c6c(=O)c7ccccc7c(=O)c6c5[nH]c43)c(=O)c12)c1ccccc1 | C.I. Vat brown 3 | n/a | n/a | 4.1 | -5.647 | n/a | n/a | n/a |
| CCCCCCCCCCCC(=O)OCCCCCCCCCC | Dodecanoic acid, decyl ester | 21.4 | n/a | n/a | -8.81 | -7.151 | n/a | n/a |
| CCCCC(CC)CN(CC(CC)CCCC)Cn1cncn1 (centres undefined) | 1H-1,2,4-Triazole-1-methanamine, N,N-bis(2-ethylhexyl)- | n/a | n/a | n/a | n/a | -4.274 | -6.474 | n/a |
| C=CCOCC(CC)(CO)COCC=C | 2,2-Bis[(prop-2-en-1-yloxy)methyl]butan-1-ol | n/a | 260.9 | n/a | -1.718 | n/a | n/a | n/a |
| CCCC(C)=NO[Si](ON=C(C)CCC)(ON=C(C)CCC)c1ccccc1 | n/a | -21.5 | 237.9 | 1.25 | n/a | -5.714 | n/a | n/a |
| FC(F)(F)C(F)(F)C(F)(F)F | Perflutren | n/a | n/a | 3 | -4.518 | n/a | n/a | n/a |
| O=c1c2ccccc2ccc2ccccc12 | 5H-Dibenzo[a,d]cyclohepten-5-one | n/a | n/a | 3.508 | -4.653 | n/a | n/a | n/a |
| CCc1c(Cl)cc(NC(=O)C(CC)Oc2ccc(C(C)(C)CC)cc2C(C)(C)CC)c(O)c1Cl (centres undefined) | n/a | 145.4 | n/a | n/a | -6.52 | -8.547 | n/a | n/a |
| CC(=O)OC(C)C1CCCCC1 (centres undefined) | 1-Cyclohexylethyl acetate | n/a | n/a | 3.2 | -3.598 | -0.539 | n/a | n/a |
| COC(=O)CC1CCCCC1 | Methylcyclohexylacetate | n/a | n/a | 1.32 | -2.717 | -0.462 | n/a | n/a |
| O=C(OC[C@H]1O[C@@](COC(=O)c2ccccc2)(O[C@H]2O[C@H](COC(=O)c3ccccc3)[C@@H](OC(=O)c3ccccc3)[C@H](OC(=O)c3ccccc3)[C@H]2OC(=O)c2ccccc2)[C@@H](OC(=O)c2ccccc2)[C@@H]1OC(=O)c1ccccc1)c1ccccc1 | Sucrose octabenzoate | 73.4 | n/a | n/a | -5.593 | -9.772 | n/a | n/a |
| CCC(=O)c1ccc2c(c1)N(CCCN1CCN(CCO)CC1)c1ccccc1S2 | Carphenazine | n/a | n/a | 3.3 | -3.672 | n/a | n/a | n/a |
| CCCCC(CC)CNS(=O)(=O)c1ccc(N=Nc2c(C)c(C#N)c(=O)n(CCCC)c2O)cc1 (centres undefined) | n/a | 131 | n/a | n/a | -8.797 | n/a | n/a | n/a |
| C=CC(=O)Oc1c(Cc2cc(C)cc(C(C)(C)C)c2O)cc(C)cc1C(C)(C)C | n/a | 133.2 | n/a | 7.25 | -9.506 | n/a | n/a | n/a |
| Oc1c(Cl)cc(Cl)c2cccnc12 | Chloroxine | n/a | n/a | 3 | -3.191 | n/a | n/a | n/a |
| FC(F)(I)C(F)(F)C(F)(F)C(F)(F)I | Perfluoro-1,4-diiodobutane | n/a | n/a | 3.8 | n/a | 0.989 | n/a | n/a |
| CC1=CC=C(C(C)C)CC1 | alpha-Terpinene | n/a | n/a | n/a | -4.36 | -0.098 | n/a | n/a |
| C=CC(=O)OCC1(CC)COCOC1 | (5-Ethyl-1,3-dioxan-5-yl)methyl 2-propenoate | -28.7 | n/a | 1.9 | n/a | -2.347 | n/a | n/a |
| C/C(=C\c1ccc(C)cc1)CO | 2-Propen-1-ol, 2-methyl-3-(4-methylphenyl)-, (2E)- | 22.6 | 275.4 | 2.39 | -2.45 | -3.535 | n/a | n/a |
| CC(C)(C)CC(C)(C)SSSC(C)(C)CC(C)(C)C | Bis(2,4,4-trimethyl-2-pentanyl)trisulfane | n/a | n/a | n/a | -7.208 | -3.655 | n/a | n/a |
| NCCCNCCN | N-(2-Aminoethyl)-1,3-propanediamine | n/a | n/a | -1.52 | n/a | -1.458 | n/a | n/a |
| O=c1[nH]cn[nH]1 | 3H-1,2,4-Triazol-3-one, 1,2-dihydro- | 236.5 | n/a | n/a | n/a | -4.648 | n/a | n/a |
| O=C(OCCCc1ccccc1)c1ccccc1 | 3-phenylpropyl benzoate | n/a | n/a | 4.4 | -4.801 | -3.894 | n/a | n/a |
| O=C(NC1CCN(CCc2c[nH]c3ccccc23)CC1)c1ccccc1 | Indoramin | 209 | n/a | n/a | n/a | n/a | n/a | 0.1583 |
| CCOC(=O)N(c1ccccc1)c1ccccc1 | Ethyl diphenylcarbamate | n/a | n/a | 3.33 | -3.969 | -5.063 | n/a | n/a |
| CNc1cccc2c1C(=O)c1ccccc1C2=O | 1-(Methylamino)anthraquinone | n/a | n/a | n/a | -6.3 | -8.155 | n/a | n/a |
| CCCC/C=C\CCCCCCCCO | 9-cis-Tetradecenol | n/a | n/a | n/a | -4.971 | -4.225 | n/a | n/a |
| COc1ccc(C=CC(=O)OCCC(C)C)cc1 | Amiloxate | 3.5 | n/a | 4.78 | -5.492 | -4.979 | n/a | n/a |

A selection of 2 entries from above:

{"smiles": "NCCCNCCN", "name": "N-(2-Aminoethyl)-1,3-propanediamine", "log Kow": "-1.52", "log vapor pressure (log10 mmHg)": "-1.458"}
{"smiles": "CCCC(C)=NO[Si](ON=C(C)CCC)(ON=C(C)CCC)c1ccccc1", "MP (°C)": "-21.5", "BP (°C)": "237.9", "log Kow": "1.25", "log vapor pressure (log10 mmHg)": "-5.714"}

From the experimental data distributed with OPERA 2.9.